Patent US5508311A, “Aliphatic propargylamines as selective MAO-B inhibitors and as neuroprotective agents” (University of Saskatchewan, priority 1993, dated 1996)

Amino acid sequences for entries named in this document (tags omitted).
UniProt P19643, whole entry: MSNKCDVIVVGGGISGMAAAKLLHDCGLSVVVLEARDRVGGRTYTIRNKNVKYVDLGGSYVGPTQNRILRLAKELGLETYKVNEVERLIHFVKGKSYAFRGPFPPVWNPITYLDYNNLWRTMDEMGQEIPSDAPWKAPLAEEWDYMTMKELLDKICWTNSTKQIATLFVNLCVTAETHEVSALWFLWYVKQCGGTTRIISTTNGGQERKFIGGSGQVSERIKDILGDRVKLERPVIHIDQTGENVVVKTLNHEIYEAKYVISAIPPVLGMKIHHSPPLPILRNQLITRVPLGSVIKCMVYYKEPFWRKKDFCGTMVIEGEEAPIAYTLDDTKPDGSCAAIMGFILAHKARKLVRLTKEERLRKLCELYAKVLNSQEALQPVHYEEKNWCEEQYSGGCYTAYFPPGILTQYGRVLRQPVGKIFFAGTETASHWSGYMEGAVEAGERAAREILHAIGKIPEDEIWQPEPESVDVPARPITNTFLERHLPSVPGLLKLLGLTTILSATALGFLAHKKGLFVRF
UniProt Q8BW75, whole entry: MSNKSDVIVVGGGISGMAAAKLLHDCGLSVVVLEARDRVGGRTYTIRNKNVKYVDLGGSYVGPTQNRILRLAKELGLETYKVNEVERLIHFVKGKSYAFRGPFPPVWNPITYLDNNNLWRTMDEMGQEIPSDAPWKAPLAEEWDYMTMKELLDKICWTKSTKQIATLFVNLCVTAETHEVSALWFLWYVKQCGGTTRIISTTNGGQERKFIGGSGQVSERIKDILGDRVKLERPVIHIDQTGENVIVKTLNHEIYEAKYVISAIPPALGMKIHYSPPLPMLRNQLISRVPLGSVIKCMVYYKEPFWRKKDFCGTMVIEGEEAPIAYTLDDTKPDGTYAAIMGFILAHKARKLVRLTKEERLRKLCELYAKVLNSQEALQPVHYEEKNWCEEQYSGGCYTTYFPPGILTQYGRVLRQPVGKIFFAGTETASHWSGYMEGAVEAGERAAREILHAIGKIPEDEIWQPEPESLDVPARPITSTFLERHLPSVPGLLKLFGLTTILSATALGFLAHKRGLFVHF

Tests used:
[1] = target: MAO-B (Rattus norvegicus, UniProt P19643); assay: biochemical
[2] = target: MAO-B (Mus musculus, UniProt Q8BW75); assay: MAO-B activity in the mouse brain after oral administration (substrate PE)

## C#CCN(C)C(C)CC.Cl.O=C(O)C(=O)O (racemic) [Example 2-BuMP]
[1]
  IC50: 1000 nM
[2]; mouse, po, 2 h, read-out: Inhibition of MAO-B activity, dose response (ID50)
  ED50: 5 mg/kg
[2]; oral 10 mg/Kg, 2 hours, PE (1.9 × 10^-5 M), mean ± standard error, saline = 100
  Relative activity PE: 28 ± 2%
